One substance from patent publication US5780498A, “Endothelin receptor antagonists” (Ciba-Geigy Japan Limited, priority 1993, dated 1998) can be followed below.

Sequences of proteins named here, by UniProt entry; tags and fusion partners are left off. Residues count along the entry.
UniProt Q29010, 21-427: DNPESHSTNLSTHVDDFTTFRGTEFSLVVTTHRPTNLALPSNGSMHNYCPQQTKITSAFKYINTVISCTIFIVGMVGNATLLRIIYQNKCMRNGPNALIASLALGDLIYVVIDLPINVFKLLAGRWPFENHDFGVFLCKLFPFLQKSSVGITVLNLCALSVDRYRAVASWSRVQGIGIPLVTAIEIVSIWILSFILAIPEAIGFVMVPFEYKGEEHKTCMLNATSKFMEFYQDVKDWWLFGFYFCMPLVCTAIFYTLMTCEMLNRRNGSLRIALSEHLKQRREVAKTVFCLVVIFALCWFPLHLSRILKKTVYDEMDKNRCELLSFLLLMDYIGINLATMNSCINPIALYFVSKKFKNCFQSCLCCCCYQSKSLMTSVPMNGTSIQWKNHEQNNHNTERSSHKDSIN

This test deals with T1, ETA receptor (Sus scrofa, UniProt Q29010).
T1 construct: The plasma membrane of porcine lung; from tissue; host or cells: porcine lung plasma membrane
As to the kind of experiment: Endothelin (ET) receptor binding assay, ETA ([125I]ET-1 in the presence of 1 nM nonlabeled ET-3, porcine lung plasma membrane). The settings on record: Scatchard analysis, read-out: apparant dissociation constant (Kd), ETA receptor. On the procedure: Nonspecific binding is defined as membrane-associated radioactivity in the presence of saturating concentrations of ETs (100 nM). Nonspecific binding is subtracted from the total binding and the difference is defined as specific binding.

For orientation: Kd means the constant that tells how readily two partners part at equilibrium. Turning to “[^125 I]ET-1: radiolabelled endothelin-1, purchased from Amersham International [reference compound]”, the Kd came out at 0.044 nM.
